Test results from patent US7189858B2, “N-phenyl substituted carbamoyloxyalkyl-azolium derivatives” (Basilea Pharmaceutica AG, priority 1999, dated 2007).

Test: Solubility (Table 1)
Conditions: solvent a = distilled water

With “1-[[N-methyl-N-2-(methylamino)acetoxymethyl-3-methyl-phenyl]carbamoyloxy]ethyl-1-[(2R,3R)-2-(2,5-difluorophenyl)-2-hydroxy-3-[4-(4-cyanophenyl)thiazol-2-yl]butyl]-1H-[1,2,4]triazol-4-ium iodide hydrochloride [Example 7.21.]” the “Solubility” value was >10000 µg/mL.
